These results are taken from ChEMBL document CHEMBL5344430, “Targeting the Translocator Protein (18 kDa) in Cardiac Diseases: State of the Art and Future Opportunities” (J Med Chem, 2024).

Protein sequences, listed by entry. Tags and fused reporters are not part of them.
UniProt P30536, whole entry: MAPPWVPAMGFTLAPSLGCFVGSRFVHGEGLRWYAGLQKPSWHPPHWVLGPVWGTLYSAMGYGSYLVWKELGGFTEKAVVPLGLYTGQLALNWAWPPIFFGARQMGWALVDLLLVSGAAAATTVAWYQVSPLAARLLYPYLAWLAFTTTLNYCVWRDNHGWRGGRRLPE

pKi: −log10 of the molar value.

For this assay, the target named is Translocator protein (Homo sapiens, UniProt P30536).

For `CC[C@@H](C)N([11CH3])C(=O)c1cc2ccccc2c(-c2ccccc2Cl)n1`, the pKi (usually the Ki on a negative log10 scale, so that one unit is a factor of ten) is 8.68.
